Values of other authors as cited in patent US20210361598A1, “COMPOUNDS FOR PREVENTION AND TREATMENT OF POST-INTENSIVE CARE COGNITIVE DYSFUNCTION AND COGNITIVE DYSFUNCTION RESULTING FROM RESPIRATORY DISTRESS” (Abrexa Pharmaceuticals, Inc., priority 2020, published 2021).

Test system: post-surgical cognitive dysfunction
Settings: literature reports, after surgery; cited from earlier work

Substance: Pexelizumab: a humanized monoclonal antibody used as an immunosuppressive drug
- Effect on post-surgical cognitive dysfunction: had no effect
